Patent publication US11130759B1, “2-oxoquinazoline derivatives as methionine adenosyltransferase 2A inhibitors” (IDEAYA BIOSCIENCES, INC., priority 2018, dated 2021)
pIC50: −log10 of the molar value.

Chains of the proteins cited; added tags and fusions are not shown.
UniProt P31153, whole entry: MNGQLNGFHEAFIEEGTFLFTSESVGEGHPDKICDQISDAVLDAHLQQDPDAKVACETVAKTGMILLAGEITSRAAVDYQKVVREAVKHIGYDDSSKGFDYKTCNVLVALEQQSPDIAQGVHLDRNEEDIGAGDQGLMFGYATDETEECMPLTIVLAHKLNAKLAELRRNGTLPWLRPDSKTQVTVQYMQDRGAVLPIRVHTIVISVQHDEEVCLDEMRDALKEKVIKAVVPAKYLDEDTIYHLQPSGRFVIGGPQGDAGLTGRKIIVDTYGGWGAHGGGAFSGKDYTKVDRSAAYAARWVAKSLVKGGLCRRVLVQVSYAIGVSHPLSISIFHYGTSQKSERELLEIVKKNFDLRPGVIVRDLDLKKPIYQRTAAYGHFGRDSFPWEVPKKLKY

Biological target: Human MAT2A (Homo sapiens (Human), UniProt P31153)
Assay: Phosphate Sensor Fluorescence Assay (MAT2A enzyme inhibition)
Assay type: biochemical
Details: read-out: IC50 um, L-methionine 500 uM, ATP 500 uM, class symbols

pIC50: 5.00 to 6.00
SMILES: C[C@@H](CO)Nc1nc(=O)n(-c2ccccc2Cl)c2nc(C(F)(F)F)ccc12 [one of 273 and 292]
